This is a sample that favours compounds with a hit; in the whole collection about 2.3% have one here.
Mito fusion yeast – inhibitors of mitochondrial division or activators of mitochondrial fusion; AID 485298; S. cerevisiae fusion-defective mutant growth rescue, CellTiterGlo 48 h; 0.23% of 320,000 active; Potency, µM (titrated, usually from 46.1 µM), inactives show top-dose growth rescue (activation), hits mostly activators; note: potency is the fitted concentration of half-maximal effect; % of control where 0% means no effect; nearly all actives have a fitted effect of over 45% in size
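Luminescent cell viability in 1536-well qHTS format served as the measure of rescued growth in ts fusion-mutant S. cerevisiae cultured on non-fermentable YPEG for 48 hours at 37C.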
Nrf2 inh – Nrf2 pathway inhibition; A549 ARE-Fluc reporter, luciferase luminescence, 18-24 h; Potency, µM (top dose mostly 46 µM), inactives show top-dose activity change, negative = inhibition, usual class: inhibitors; 2.1% of 360,000 active; AID 504444; note: potency is the fitted concentration of half-maximal effect; % is set by controls: 0 for no effect and ±100 for the full control effect; nearly all actives have a fitted effect of over 60% in size
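Reporter: ARE-Fluc in A549. Exposure: 18-24 h, 37 °C, 5% CO2, 5% FBS OPTI-MEM. Readouts: fluorescent cytotoxicity (CellTiter-Fluor), then luminescent Nrf2 signal after BugLite.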
miR-21 reporter – miR-21 reporter, rising signal | Potency, µM (highest dose often 38.3 µM), for inactives: at the highest dose reporter change, positive = more light | 340,000 tested, under 10 active | HeLa miR-21 FLuc reporter, luciferase, 48 h; active = well fitted rising curve with a large enough effect; inconclusive = small, poorly fitted or top-dose-only effect; inactive = no such curve, though single readings can be large or run the other way;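 note: % of control where 0% means no effect; miR-21 action dims this reporter so a rising signal means less miR-21 action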
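Using DMEM plus 10% FBS, HeLa miR-21-FLuc cells are incubated with test compounds (final up to about 40uM) for 48 hours; firefly luciferase signal is then imaged following reagent-mediated lysis.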
GRP78 ERSR act – ER stress response induction in glioma; U87-MG GRP78 promoter luciferase reporter, 16 h; Potency, µM, without a hit: top-dose activation, usual class: activators; 0.02% of 420,000 active; AID 602332; note: potency is the fitted concentration of half-maximal effect; series mostly up to about 76 µM; % of control where 0% means no effect; nearly all actives have a fitted effect of over 35% in size
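Stably transfected U87-MG glioma cells carrying a GRP78-based luciferase sensor; 16 h compound incubation. Luminescence end-point read 10 min after Bright-Glo addition at room temperature.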
Nrf2 activator – activates Nrf2 signaling; AREc32 ARE-luciferase reporter (MCF7-derived line), luminescence, 24 h; 0.31% of 410,000 active; Potency, µM (titrated, usually from 46.1 µM), for the others: at the top dose activation, most hits filed as activators; note: potency is the fitted concentration of half-maximal effect; % of control where 0% means no effect; nearly all actives have a fitted effect of over 65% in size
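ARE-driven firefly luciferase activity in AREc32 cells measured after a 24 hr compound exposure at 37 deg C, using Steady-Glo reagent and a 30 min room-temperature hold.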
A549 tox-1 – A549 cytotoxicity, counter-screen for Nrf2 inhibitors | A549 ARE-Fluc cells, CellTiter-Fluor viability, 18-24 h | Potency, µM (series often up to 46 µM), for the others: at the top dose activity change, negative = cytotoxicity, actives largely listed as inhibitors | 0.16% of 390,000 active | AID 504648; note: potency is the fitted concentration of half-maximal effect; % is set by controls: 0 for no effect and ±100 for the full control effect
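A549 ARE_Fluc cells in 5% FBS OPTI-MEM were exposed to compounds in concentration-response for 18-24 h at 37 deg C. Viability was read by CellTiter-Fluor fluorescence (Ex 405/Em 525) after 30 min, before the luciferase read.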
FLuc counter 3 – counter-screen for Nrf2 inhibitors: firefly luciferase enzyme inhibition | 4% of 1,400 active | AID 720522 | Potency, µM (top dose mostly 57.5 µM), for inactives: at the highest dose activity change, negative = inhibition, most hits filed as inhibitors | shares compounds with Nrf2 inh | purified firefly luciferase, luminescence inhibition; note: potency is the fitted concentration of half-maximal effect; % is set by controls: 0 for no effect and ±100 for the full control effect; nearly all actives have a fitted effect of over 65% in size
A549 tox-2 – counter-screen for Nrf2 inhibitors: cytotoxicity in A549 ARE cells. shares compounds with Nrf2 inh. A549 ARE-Fluc cells, cytotoxicity counterscreen. Potency, µM (doses to about 46.1 µM), for the others: at the top dose activity change, negative = cytotoxicity, most hits filed as inhibitors. 2% of 1,400 active;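 note: potency is the fitted concentration of half-maximal effect; cells exposed to compounds for 18 to 24 hours; % is set by controls: 0 for no effect and ±100 for the full control effect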
ARE-Fluc inh – Nrf2 inhibition confirmed, A549 ARE-luciferase. shares compounds with Nrf2 inh. A549 ARE-firefly luciferase reporter, luminescence. Potency, µM (series often up to 46.1 µM), for inactives: top-dose activity change, negative = inhibition, usual class: inhibitors. 74% of 1,400 active. AID 720524; note: potency is the fitted concentration of half-maximal effect; % is set by controls: 0 for no effect and ±100 for the full control effect; nearly all actives have a fitted effect of over 65% in size
Active calls of the source: *. Calls come from the whole dose curve; as a rule, active = well fitted curve in the direction sought with a large enough effect; inconclusive = small, poorly fitted or top-dose-only effect, or another doubt; inactive = no such curve, though single readings can be large; an effect the other way counts as inactive or inconclusive.

Results for CCc1cccc(NC(=O)C2CCN(S(=O)(=O)c3ccc4c(c3)CC(C)N4C(C)=O)CC2)c1 (configuration not stated) ?
Mito fusion yeast: -3.2%; Nrf2 inh: 7.31µM*; miR-21 reporter: 14.6%; GRP78 ERSR act: -3.9%; Nrf2 activator: -0.6%; A549 tox-1: -18.6%; FLuc counter 3: 0.1%; A549 tox-2: -6.1%; ARE-Fluc inh: 9.2µM*

Results for C=CCNC(=O)CC1Nc2c3ccccc3nc(=S)n2C1=O (configuration not stated) ?
Mito fusion yeast: 9.5%; Nrf2 inh: 1.0%; miR-21 reporter: 3.7%; GRP78 ERSR act: -2.3%; Nrf2 activator: 0.0%; A549 tox-1: 1.4%

How did CC[C@]12C(=O)N(C)C[C@H]([C@@H]3C(=O)N(C)C(=O)[C@@H]31)N2C(=O)c1ccc(C)cc1 do in these assays?
Nrf2 inh: 0.8%; GRP78 ERSR act: -4.3%; Nrf2 activator: -0.3%; A549 tox-1: -1.2%

Results for Cc1ccc2c(c1)S/C(=C/c1ccc[n+](C)c1)N2CCO ?
Mito fusion yeast: 0.5%; Nrf2 inh: 2.59µM*; miR-21 reporter: 27.1%; GRP78 ERSR act: -4.9%; Nrf2 activator: 4.1%; A549 tox-1: -16.5%; FLuc counter 3: -0.4%; A549 tox-2: -17.2%; ARE-Fluc inh: 6.51µM*

Results for COc1ccc(N2CCN(C(=O)COc3cccc4ccccc34)CC2)cc1 ?
Mito fusion yeast: 5.7%; Nrf2 inh: 2.59µM*; miR-21 reporter: -11.5%; GRP78 ERSR act: -1.8%; Nrf2 activator: -0.5%; A549 tox-1: inconclusive; FLuc counter 3: -5.9%; A549 tox-2: 7.7%; ARE-Fluc inh: -4.7%

What do the screens show for `O=C(COc1cccc2ccccc12)N1CCN(c2ccccc2)CC1`?
Mito fusion yeast: 28.8%; miR-21 reporter: -8.0%; GRP78 ERSR act: -0.8%; Nrf2 activator: 0.7%; A549 tox-1: 1.8%

Results for Cc1ccc(N(CC(=O)Nc2cc(C)cc(C)c2)S(=O)(=O)c2c(C)noc2C)cc1 ?
Mito fusion yeast: -30.8%; Nrf2 inh: 7.31µM*; miR-21 reporter: inconclusive; GRP78 ERSR act: -3.7%; Nrf2 activator: 0.0%; A549 tox-1: inconclusive; FLuc counter 3: 2.0%; A549 tox-2: -18.7%; ARE-Fluc inh: 11.6µM*

How did Cc1cccc(NC2=NC(C)(C)N=C(N)N2)c1 do in these assays?
Mito fusion yeast: -1.2%; Nrf2 inh: 5.17µM*; miR-21 reporter: 18.6%; GRP78 ERSR act: -2.3%; Nrf2 activator: -0.4%; A549 tox-1: -7.6%; FLuc counter 3: 2.2%; A549 tox-2: -5.8%; ARE-Fluc inh: 4.61µM*

How did O=C(Nc1ccc(-c2nc3ccccc3s2)cc1)c1cc(-n2cnnc2)ccc1Cl do in these assays?
Mito fusion yeast: 2.4%; Nrf2 inh: 2.31µM*; miR-21 reporter: 22.2%; GRP78 ERSR act: 1.5%; Nrf2 activator: 2.7%; A549 tox-1: inconclusive; FLuc counter 3: inconclusive; A549 tox-2: -12.8%; ARE-Fluc inh: 7.31µM*

Results for O=C(Nc1ccc(-c2cn3cccnc3n2)cc1)c1ccccc1F ?
miR-21 reporter: -33.6%; GRP78 ERSR act: -3.9%; Nrf2 activator: -1.1%; A549 tox-1: -5.7%

How did Cc1cc(C)cc(C(=O)Nc2ccc(-c3cn4cccnc4n3)cc2)c1 do in these assays?
Nrf2 inh: 9.2µM*; miR-21 reporter: 0.6%; GRP78 ERSR act: 18.9%; Nrf2 activator: -0.5%; A549 tox-1: -0.1%; FLuc counter 3: 1.2%; A549 tox-2: -1.1%; ARE-Fluc inh: inconclusive

What do the screens show for `Cc1noc(C)c1CSCC(=O)Nc1nc(-c2ccc(F)c(F)c2)cs1`?
Mito fusion yeast: 9.4%; Nrf2 inh: 9.2µM*; GRP78 ERSR act: -9.4%; Nrf2 activator: -1.9%; A549 tox-1: inconclusive; FLuc counter 3: -12.5%; A549 tox-2: -18.2%; ARE-Fluc inh: 13µM*

How did Cc1csc(NC(=O)CSCc2c(C)noc2C)n1 do in these assays?
Mito fusion yeast: -2.9%; Nrf2 inh: 1.1%; GRP78 ERSR act: -0.5%; Nrf2 activator: -0.4%; A549 tox-1: 1.5%

How did OCC(CO)(CO)NCC(O)CN1c2ccccc2Sc2ccccc21 (configuration not stated) do in these assays?
Mito fusion yeast: 2.9%; Nrf2 inh: 2.5%; miR-21 reporter: -1.2%; GRP78 ERSR act: -4.3%; Nrf2 activator: -0.6%; A549 tox-1: -7.6%

Results for CCc1ccc2[nH]c(=O)c(CN(Cc3ccccc3)C(=O)Nc3ccccc3OC)cc2c1 ?
Mito fusion yeast: 7.8%; Nrf2 inh: 7.31µM*; miR-21 reporter: 10.7%; GRP78 ERSR act: 0.2%; Nrf2 activator: 0.6%; A549 tox-1: -23.3%; FLuc counter 3: -0.5%; A549 tox-2: -26.0%; ARE-Fluc inh: inconclusive

How did CCc1ccc2[nH]c(=O)c(CN(CCN(C)C)C(=O)Nc3ccccc3OC)cc2c1 do in these assays?
Mito fusion yeast: -0.1%; Nrf2 inh: -5.3%; miR-21 reporter: -8.3%; GRP78 ERSR act: -2.5%; Nrf2 activator: 0.2%; A549 tox-1: 2.7%

How did CCc1c(C)nc2ncnn2c1NCCc1ccc(OC)cc1 do in these assays?
Mito fusion yeast: -0.1%; miR-21 reporter: 17.5%; GRP78 ERSR act: -2.7%; Nrf2 activator: -0.6%; A549 tox-1: -16.0%

How did CC(=NNC(=S)N1CCC1)c1ccccn1 do in these assays?
Nrf2 inh: 0.13µM*; GRP78 ERSR act: -2.6%; Nrf2 activator: inconclusive; A549 tox-1: inconclusive; FLuc counter 3: -17.6%; A549 tox-2: inconclusive; ARE-Fluc inh: 0.651µM*

Results for CC(C)C(NC(=O)c1ccoc1)c1nnc2n1CCN(C(=O)/C=C/c1ccc(F)cc1)CC2 (configuration not stated) ?
GRP78 ERSR act: -7.0%

Quoted at random: two compounds from above
How did CCc1ccc2[nH]c(=O)c(CN(CCN(C)C)C(=O)Nc3ccccc3OC)cc2c1 do in these assays?
Mito fusion yeast: -0.1%; Nrf2 inh: -5.3%; miR-21 reporter: -8.3%; GRP78 ERSR act: -2.5%; Nrf2 activator: 0.2%; A549 tox-1: 2.7%

How did CC(=NNC(=S)N1CCC1)c1ccccn1 do in these assays?
Nrf2 inh: 0.13µM*; GRP78 ERSR act: -2.6%; Nrf2 activator: inconclusive; A549 tox-1: inconclusive; FLuc counter 3: -17.6%; A549 tox-2: inconclusive; ARE-Fluc inh: 0.651µM*

High-throughput results: PubChem, National Center for Advancing Translational Sciences (NCATS)
